Measurements reported in patent US20250109212A1 (BIOSION, published 2025).

Protein sequences, listed by entry. Tags and fused reporters are not part of them. Lines headed by an entry give the natural chain unless they say otherwise; changes in a name come on top.
UniProt P25942: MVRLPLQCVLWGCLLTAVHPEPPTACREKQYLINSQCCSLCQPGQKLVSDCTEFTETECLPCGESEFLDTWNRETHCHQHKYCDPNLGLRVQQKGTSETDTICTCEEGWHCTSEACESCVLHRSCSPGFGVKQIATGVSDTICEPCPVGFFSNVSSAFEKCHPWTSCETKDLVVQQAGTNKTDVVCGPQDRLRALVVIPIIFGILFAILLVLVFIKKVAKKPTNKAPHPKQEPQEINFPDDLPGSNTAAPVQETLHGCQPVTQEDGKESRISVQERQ

Target: human CD40-Fc protein (Cat #: CD0-H5253, ACRO Biosystems) (human, UniProt P25942, in part)
Assay: dual-binding ELISA: human CD40-Fc coated, binder titrated, detected with human CD47-his and anti-His-HRP, OD450

B1: SIRPα-Fc-CD40L (Fc fusion)
chain: [about 350 residues not given here]ESKYGPPCPSCPAPEFLGGPSVFLFPPKPKDTLMISRTPEVTCVVVDVSQEDPEVQFNWYVDGVEVHNAKTKPREEQFNSTYRVVSVLTVLHQDWLNGKEYKCKVSNKGLPSSIEKTISKAKGQPREPQVYTLPPSQEEMTKNQVSLTCLVKGFYPSDIAVEWESNGQPENNYKTTPPVLDSDGSFFLYSRLTVDKSRWQEGNVFSCSVMHEALHNHYTQKSLSLSLGKHRRLDKIEDERNLHEDFVFMKTIQRCNTGERSLSLLNCEEIKSQFEGFVKDIMLNKEETKKENSFEMQKGDQNPQIAAHVISEASSKTTSVLQWAEKGYYTMSNNLVTLENGKQLTVKRQGLYYIYAQVTFCSNREASSQAPFIASLCLKSPGRFERILLRAANTHSSAKPCGQQSIHLGGVFELQPGASVFVNVTDPSQVSHGTGFTSFGLLKL
Q: How did the EC50 turn out when B1 was run?
A: 6.17 nM
